Earlier results as cited in patent US20160151380A1, “THERAPIES FOR DISEASES CAUSED BY ARTHROPOD-BORNE PARASITES” (THE REGENTS OF THE UNIVERSITY OF CALIFORNIA, priority 2013, published 2016).

Amino acid sequences for entries named in this document (tags omitted).
UniProt P45983, whole entry, species assumed: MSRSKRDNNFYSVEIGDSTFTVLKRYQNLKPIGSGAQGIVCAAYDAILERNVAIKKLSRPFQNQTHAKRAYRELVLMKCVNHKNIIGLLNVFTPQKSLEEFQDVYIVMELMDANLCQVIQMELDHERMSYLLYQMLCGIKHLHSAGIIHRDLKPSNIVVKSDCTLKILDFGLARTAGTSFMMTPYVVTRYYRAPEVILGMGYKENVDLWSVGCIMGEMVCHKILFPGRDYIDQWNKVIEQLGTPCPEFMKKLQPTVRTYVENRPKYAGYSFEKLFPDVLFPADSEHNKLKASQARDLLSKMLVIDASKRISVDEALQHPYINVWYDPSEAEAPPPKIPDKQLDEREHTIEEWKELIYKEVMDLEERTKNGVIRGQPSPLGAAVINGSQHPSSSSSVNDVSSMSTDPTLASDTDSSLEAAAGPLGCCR
UniProt P53779, whole entry, species assumed: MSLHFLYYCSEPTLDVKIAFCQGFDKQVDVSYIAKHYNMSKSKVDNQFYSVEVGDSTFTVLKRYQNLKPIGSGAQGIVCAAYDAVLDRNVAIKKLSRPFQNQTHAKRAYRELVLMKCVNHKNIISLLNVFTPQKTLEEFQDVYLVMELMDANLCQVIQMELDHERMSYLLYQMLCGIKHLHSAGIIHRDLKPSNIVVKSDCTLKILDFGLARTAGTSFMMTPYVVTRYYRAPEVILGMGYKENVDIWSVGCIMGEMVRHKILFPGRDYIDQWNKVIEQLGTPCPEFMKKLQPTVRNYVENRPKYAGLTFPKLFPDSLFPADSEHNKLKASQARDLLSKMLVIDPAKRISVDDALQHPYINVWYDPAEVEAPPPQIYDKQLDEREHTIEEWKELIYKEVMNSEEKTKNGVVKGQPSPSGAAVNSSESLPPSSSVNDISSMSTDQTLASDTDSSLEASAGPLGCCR

Experiments:
JNK1 = JNK1 (Homo sapiens, UniProt P45983); conditions: cited from earlier work
JNK3 = JNK3 (Homo sapiens, UniProt P53779); conditions: cited from earlier work

Substance: JNKIN7
- IC50 (JNK1): < 40 nM
- IC50 (JNK3): < 40 nM
